Source: patent US20040018194A1

Protein sequences, listed by entry. Tags and fused reporters are not part of them. Residues count along the entry.
UniProt P28908, 19-595: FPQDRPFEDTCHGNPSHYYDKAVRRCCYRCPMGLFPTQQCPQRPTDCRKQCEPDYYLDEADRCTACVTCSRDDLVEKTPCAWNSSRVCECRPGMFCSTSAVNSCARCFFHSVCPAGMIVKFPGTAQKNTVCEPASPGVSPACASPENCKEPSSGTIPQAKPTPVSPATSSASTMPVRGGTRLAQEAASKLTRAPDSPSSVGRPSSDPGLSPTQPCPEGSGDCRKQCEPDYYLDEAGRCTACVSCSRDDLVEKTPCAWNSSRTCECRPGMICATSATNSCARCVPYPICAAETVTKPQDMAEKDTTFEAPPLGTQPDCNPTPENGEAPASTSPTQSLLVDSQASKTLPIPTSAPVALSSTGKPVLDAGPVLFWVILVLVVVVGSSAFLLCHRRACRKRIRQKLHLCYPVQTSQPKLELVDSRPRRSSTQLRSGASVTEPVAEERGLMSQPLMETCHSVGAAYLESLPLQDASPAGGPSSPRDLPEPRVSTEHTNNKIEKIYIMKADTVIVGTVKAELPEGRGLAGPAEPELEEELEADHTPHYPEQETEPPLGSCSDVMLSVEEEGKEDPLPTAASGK

Molecular target: CD30 (human CD30 receptor) on the cell surface of CD30-positive cell lines (human) (UniProt P28908)
Assay: cell-based or functional assay

chimeric AC10 conjugated to the cytotoxic agent AEB (cAC10-AEB) (antibody)
IC50 (concentration that killed 50% of the cells), XTT reduction assay, Karpas 299 cells, 2 h exposure, viability at 96 h: < 0.1 microgram/ml
IC50 (concentration that killed 50% of the cells), XTT reduction assay, L540cy cells, 2 h exposure, viability at 96 h: < 0.1 microgram/ml
